According to patent US6709814B1, “Peptides causing formation of compact structures” (Rigel Pharmaceuticals, Inc., priority 1998, dated 2004):

Experiment: Deuterium exchange followed by mass spectrometry
Settings: for total exchangeable protons: pH 5, dilution into D2O

For MGEFLIVKS-GGGGDYKDDDDKGGGG-EFLIVKSGPP, the “slowly exchanging protons (not exchanged within ca. 1 hour)” value (pH 5) was “does not have slowly exchanging protons”, the total exchangeable protons was 36 and 35.9 and the “proton exchange amplitude, fast phase” value (pH 5, fastest exchange, lasting at most ca. 1 hour) was 35 and 34.8.

For “MGEFLIVKS-GGGGYPYDVPDYASLGGGG-EFLIVKSGPP”, the “slowly exchanging protons (not exchanged within ca. 1 hour)” value (pH 5) was “did not have slowly exchanging protons” and the total exchangeable protons was 40.3.

Several values for one entry are separate records, joined by “and”; a condition that tells them apart may be missing. Equal values may be shown once.
